Assay outcomes deposited in PubChem by several laboratories.
UUG fidelity = yeast start codon fidelity modulation; activity score, % at 18.7 µM; actives 0.13% (n = 350,000); S. cerevisiae UUG-firefly luciferase reporter, luminescence/redox ratio; AID 602363;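 active means replicate mean at a twofold rise or more, about +100% in these data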;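 further: firefly luciferase made from a UUG start codon reports start codon fidelity; reporter light over untreated wells divided by growth signal over untreated wells; some hits fall short of that in this replicate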
PABP polyA inh = PABP-poly(A) binding inhibition; P11940; PABP-poly(A) RNA binding, fluorescence polarization; calls only at 35 µM; 290,000 tested, 1% active; AID 2014;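 note: calls also rest on retests at 20 µM and on dose response follow-up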
eIF4H inh = inhibitors of RNA binding by human eIF4H; Q15056; eIF4H fluorescence polarization binding assay; inhibition, % at 35 µM; 290,000 tested, 0.94% active; AID 2012;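 note: calls also rest on retests at 20 µM and on dose response follow-up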
DSG3 Ab inh = human desmoglein-3 autoantibody binding inhibition; 310,000 tested, 0.48% active; binding (percent of control), % at 10 µM; DSG3-coupled beads, scFv-anti-DSG3-GFP binding, flow cytometry; active compounds read low; AID 588358; P32926;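 active = binding more than 3 SD below its plate's average and above zero; inconclusive = below that plate limit but binding exactly zero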;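 note: hits lower antibody fragment binding to DSG3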
PABP1 MLLE inh = blocks PAM2 peptide binding to the PABP1 MLLE domain. P11940. GST-MLLE / FITC-PAM2 fluorescence polarization. inhibition, % at 20 µM. 360,000 tested, 0.36% active. AID 588489; in the data active = inhibition above about 35%, passing the limit was not always enough;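 note: plate controls were DMSO wells with GST-MLLE for no effect and wells lacking GST-MLLE protein for full effect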
An asterisk follows results filed as active; i = inactive; ? = inconclusive; / = no result; + = active, no number. Only some compounds are listed: those with a hit (about 1.5% of all), similar ones and a draw of the others. Unless noted, the rule behind the calls is not given here.

SMILES	UUG fidelity	PABP polyA inh	eIF4H inh	DSG3 Ab inh	PABP1 MLLE inh
CCC(=O)N1C[C@@H](O)COC[C@@H]2O[C@@H](CC(=O)N3CCCCC3)CC[C@H]21	-2.3	/	/	/	/
COc1ccc(NC(=O)c2ccccc2)c([N+](=O)[O-])c1	/	+	?	67.5	8.0
CCOc1ccc(N/C=C/C(=O)c2ccc(OC)cc2)c([N+](=O)[O-])c1	-1.0	i	12.8	104.0	49.2*
COc1ccc(NC(=S)NC(NC(=O)c2cccc(Cl)c2)C(Cl)(Cl)Cl)c([N+](=O)[O-])c1 (configuration not stated)	-15.0	i	11.4	103.8	37.6*
COc1ccc(NC(=S)NC(NC(=O)c2cccc(C)c2)C(Cl)(Cl)Cl)c([N+](=O)[O-])c1 (configuration not stated)	-21.9	i	-11.0	/	14.4
CCCNC(=O)N1[C@H](CNC(=O)CC)[C@@H](c2ccc(C3=CCCC3)cc2)[C@@H]1CO	6.4	/	/	/	/
S=C(NC1CCCCC1)N1CCn2cccc2C1c1ccncc1 (configuration not stated)	/	+	70.5*	123.2	-87.8
S=C(NC1CCCCC1)N1CCn2cccc2C1c1cccnc1 (configuration not stated)	/	i	15.2	117.2	-120.8
Cc1cccc(OCC(=O)N(Cc2cccs2)C2CCS(=O)(=O)C2)c1C (configuration not stated)	-8.9	i	83.0*	/	8.6
Cc1ccc(OCC(=O)N(Cc2cccs2)C2CCS(=O)(=O)C2)cc1 (configuration not stated)	-6.8	i	-5.5	96.0	10.6
CCCC(=O)C1=C(O)C(C(=O)OC)C(C)(C)CC1=Nc1ccc(N)cc1 (configuration not stated)	-5.9	i	10.1	106.2	-18.0
CCCC(=Nc1ccc(N)cc1)C1=C(O)C(C(=O)OC)C(C)(C)CC1=O (configuration not stated)	-5.9	+	57.2*	105.5	9.5
COc1cccc(-c2ccc3c(c2)[C@@H]2[C@@H](CCN2Cc2ccccc2OC)[C@@H](CO)N3)c1	-9.7	/	/	/	/
N#C/C(=C/c1ccc(-c2ccc([N+](=O)[O-])cc2)o1)C(=O)Nc1nc(-c2cccs2)cs1	/	/	/	74.2*	-21.9
N#C/C(=C\c1ccc(-c2ccc(F)cc2)o1)C(=O)Nc1nc(-c2cccs2)cs1	/	i	27.9	99.5	26.4
CCN(CC)c1cccc(OC2=NS(=O)(=O)c3ccccc32)c1	-12.4	i	57.7*	99.0	-16.2
CNC(=O)C[C@@H]1CC[C@H]2[C@@H](COc3ccc(NC(=O)c4ccc(F)cc4)cc3C(=O)N2C)O1	-11.4	/	/	/	/
CC1(OC(=O)C2CCCC2)C(=O)C=C2C=C(c3ccsc3)N(Cc3ccco3)C=C2C1=O (configuration not stated)	-23.1	+	93.5*	99.7	7.0
COc1ccc(NC(=S)N/N=C2\CC(C)(C)Oc3ccc(OC)cc32)cc1	-16.2	i	-6.8	106.3	36.8*
COc1ccc(NC(=S)N/N=C2/CCCc3c(C)cc(C)cc32)cc1	4.0	i	11.2	-6.5*	22.8

A stretch of the results above, as a working copy:
SMILES	UUG fidelity	PABP polyA inh	eIF4H inh	DSG3 Ab inh	PABP1 MLLE inh
CCC(=O)N1C[C@@H](O)COC[C@@H]2O[C@@H](CC(=O)N3CCCCC3)CC[C@H]21	-2.3	/	/	/	/
COc1ccc(NC(=O)c2ccccc2)c([N+](=O)[O-])c1	/	+	?	67.5	8.0

Sorted by heavy-atom count (low to high): part of the list above
SMILES	UUG fidelity	PABP polyA inh	eIF4H inh	DSG3 Ab inh	PABP1 MLLE inh
CCCC(=O)C1=C(O)C(C(=O)OC)C(C)(C)CC1=Nc1ccc(N)cc1 (configuration not stated)	-5.9	i	10.1	106.2	-18.0
COc1ccc(NC(=S)NC(NC(=O)c2cccc(C)c2)C(Cl)(Cl)Cl)c([N+](=O)[O-])c1 (configuration not stated)	-21.9	i	-11.0	/	14.4
CC1(OC(=O)C2CCCC2)C(=O)C=C2C=C(c3ccsc3)N(Cc3ccco3)C=C2C1=O (configuration not stated)	-23.1	+	93.5*	99.7	7.0

The listing continues:
SMILES	UUG fidelity	PABP polyA inh	eIF4H inh	DSG3 Ab inh	PABP1 MLLE inh
Cc1ccc(NC(=S)N/N=C2/CCCCc3ccccc32)cc1	-22.7	i	18.1	96.7	42.3*
Cc1cccc(NC(=S)N/N=C2/CCCCc3ccccc32)c1	8.1	i	12.0	105.9	34.1
COC(=O)CSc1[nH]c2ccccc2c1[N+](=O)[O-]	/	i	-4.1	101.3	39.3*
COc1cccc(-c2ccc3c(c2)O[C@H](CN(C)C(=O)C2CCC2)[C@@H](C)CN([C@H](C)CO)S3(=O)=O)c1	1.3	/	/	/	/
C[C@H](CO)N1C[C@H](C)[C@@H](CN(C)Cc2ccc(O)cc2)OCc2cnnn2CCCC1=O	5.2	/	/	108.0	1.0
C[C@@H]1CN([C@H](C)CO)C(=O)CCCn2nncc2CO[C@H]1CN(C)Cc1ccc(O)cc1	4.7	/	/	31.1*	-18.0
CCOC(=O)c1c(/N=C/c2ccc(O)cc2O)sc2c1CCC2	/	+	65.3*	/	/
O=C(/C=C/c1ccco1)N(c1ccccn1)c1ccccn1	/	i	100.7*	95.3	16.6
N#C[C@H]1[C@@H](c2ccccc2)[C@H](CO)N1C(=O)CN1CCOCC1	0.7	/	/	/	/
O=c1cc(/C=C/c2cccs2)[nH]c2ccccc12	-10.5	i	-5.7	105.1	11.0
CSc1ccc(/C=C/c2cc(=O)c3ccccc3[nH]2)cc1	/	i	130.9*	105.9	7.1
C[C@H]1CN([C@@H](C)CO)C(=O)Cc2cc(NC(=O)Nc3ccccc3)ccc2O[C@H]1CN(C)S(=O)(=O)c1cccs1	11.4	/	/	/	/
CCOc1cccc(=O)c2c(C)n(Cc3ccco3)c(C)c12	-15.2	+	94.8*	93.2	-17.6
CCOc1cccc(=O)c2c(C)n(Cc3ccccc3)c(C)c12	/	i	30.7	102.6	-8.1
O=C(C1=C[C@@H]2[C@H]3C(=O)N(c4ccccc4Cl)C(=O)[C@H]3[C@@H](C(=O)c3ccc(Cl)cc3)N2C=C1)c1ccccc1	/	i	51.8*	/	/
CC1CCC(C(C)C)C(OCC(O)C[N+]2(C)CCCCC2)C1 (configuration not stated)	-10.3	+	2.6	103.9	-108.3
CC1CCC(C(C)C)C(OCC(O)CN2CCCC(C)C2)C1 (configuration not stated)	/	i	-2.0	113.7	4.4
C[C@@H]1CN([C@H](C)CO)C(=O)Cc2cc(NS(=O)(=O)c3cn(C)cn3)ccc2O[C@H]1CN(C)CC1CCCCC1	-13.6	/	/	/	/
CCCN(C)C[C@@H]1Oc2cc(C#Cc3cccnc3)ccc2S(=O)(=O)N([C@@H](C)CO)C[C@@H]1C	-9.2	/	/	/	/
COCC(=O)Nc1ccc2c(c1)OC[C@H](C)N(Cc1cc(F)ccc1F)C[C@@H](C)[C@H](OC)CN(C)C2=O	1.9	/	/	/	/
O=C(O)CCC(=O)Nc1sc2c(c1C(=O)Nc1cccc3ccccc13)CCCCC2	-11.2	+	57.5*	116.3	-78.4
N=c1n(CCN2CCCC2)c2ccccc2n1CC(O)c1ccco1 (configuration not stated)	-16.0	i	17.3	107.4	44.0*
CCCCCCCn1c(=N)n(CC(O)c2ccco2)c2ccccc21 (configuration not stated)	-4.9	i	-6.8	169.6	-77.9
CCC(=O)Nc1ccc2c(c1)C(=O)N(C)C[C@@H](OC)[C@H](C)CN(C(=O)c1ccccn1)[C@@H](C)CO2	-0.1	/	/	/	/
CC(C)CN(C[C@@H]1[C@@H](c2ccccc2)[C@H](CO)N1C(=O)C1CCC1)C(=O)C1CC1	-4.9	/	/	/	/
Cc1ccc(-c2nc(N)sc2CC(=O)OCC(=O)NCCC(C)C)cc1	/	i	118.9*	97.5	-0.2
CCc1c(C)sc(NC(=O)c2ccco2)c1C(=O)N1CCCCC1	6.9	i	32.0	111.4	29.9
CCc1c(C)sc(NC(=O)c2ccco2)c1C(=O)N1CCOCC1	-10.2	i	14.0	92.5	39.9*
CCCN1C[C@H](C)[C@@H](OC)CN(C)C(=O)c2cc(NC(=O)NC3CCCCC3)ccc2OC[C@@H]1C	8.2	/	/	/	/
